These are literature values, as cited in patent publication US11248025B2, “IL-2alpha receptor subunit binding compounds” (MEDIKINE, INC., priority 2019, dated 2022).

The data set has as its target IL-2 receptor subunits. As to conditions: cells expressing IL-2R subunit/β-Gal fragment constructs treated with IL-2; DiscoverX product specifications.

Consider “IL-2: four α-helical bundle cytokine, T cell growth factor; natural IL-2R agonist used as comparator”, for which the EC50 is about 26 nM.
